From patent US8696101B2, “Photopolymerizable inkjet black ink, and ink cartridge, inkjet printer and printed material using the ink, and method of preparing the ink” (Ricoh Company, Ltd., priority 2011, dated 2014)

Test: skin sensitization test (LLNA method), OECD test guide line 429
Format: in vivo
Conditions: photopolymerizable monomers used in clear inks B to K; SI less than 3 = no problem in skin sensitization
Protocol: The LLNA method is a skin sensitization test specified as OECD test guide line 429, and as shown on page 55 in “Functional Materials” Vol. 25, No. 9 published in September, 2005, the skin sensitization is determined to have no problem when Stimulation Index (SI value) showing a degree of the skin sensitization is less than 3.

For “Ethyleneoxide-modified bisphenol A diacrylate”, the “Stimulation Index (SI value)” value was 1.2.
